Literature values, collected in patent US8349353B2, “Controlled release cytotoxic agent compositions and methods for the treatment of otic disorders” (Otonomy, Inc., priority 2008, dated 2013).

Sequences of proteins named here, by UniProt entry; tags and fusion partners are left off. Residues count along the entry.
UniProt P01375, 77-233 limits assumed: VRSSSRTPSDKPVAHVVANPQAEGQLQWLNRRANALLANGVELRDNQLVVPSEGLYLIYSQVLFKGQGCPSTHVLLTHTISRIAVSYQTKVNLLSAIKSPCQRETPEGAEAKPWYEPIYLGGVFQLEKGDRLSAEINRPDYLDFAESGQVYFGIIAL

Biological target: T1, TNF (Homo sapiens, UniProt P01375)
T1 construct: host or cells: patients in clinical trials
Conditions: three phase-III clinical trials

Onercept: a soluble TNF p55 receptor
adverse events in clinical trials: patients diagnosed with fatal sepsis
